Test [1] deals with human MR (mineralocorticoid receptor) (Homo sapiens, UniProt P08235). Kind of test: Steroid hormone nuclear receptor binding assay, MR. The settings on record: read-out: MR (Ki nM); HEK293 lysate, [3H]-aldosterone.
Test [2] addresses human GR (glucocorticoid receptor) (Homo sapiens, UniProt P04150). Kind of test: Steroid hormone nuclear receptor binding assay, GR. The settings on record: read-out: GR (Ki nM); HEK293 lysate, [3H]-dexamethasone.
Test [3] concerns the target human PR (progesterone receptor) (Homo sapiens, UniProt P06401). Kind of test: Steroid hormone nuclear receptor binding assay, PR. The settings on record: read-out: PR (Ki nM); HEK293 lysate, [3H]-methyltrienolone.

Sequences of proteins named here, by UniProt entry; tags and fusion partners are left off. A change or cut given only in a name is not applied to a line headed by its entry.
UniProt P08235: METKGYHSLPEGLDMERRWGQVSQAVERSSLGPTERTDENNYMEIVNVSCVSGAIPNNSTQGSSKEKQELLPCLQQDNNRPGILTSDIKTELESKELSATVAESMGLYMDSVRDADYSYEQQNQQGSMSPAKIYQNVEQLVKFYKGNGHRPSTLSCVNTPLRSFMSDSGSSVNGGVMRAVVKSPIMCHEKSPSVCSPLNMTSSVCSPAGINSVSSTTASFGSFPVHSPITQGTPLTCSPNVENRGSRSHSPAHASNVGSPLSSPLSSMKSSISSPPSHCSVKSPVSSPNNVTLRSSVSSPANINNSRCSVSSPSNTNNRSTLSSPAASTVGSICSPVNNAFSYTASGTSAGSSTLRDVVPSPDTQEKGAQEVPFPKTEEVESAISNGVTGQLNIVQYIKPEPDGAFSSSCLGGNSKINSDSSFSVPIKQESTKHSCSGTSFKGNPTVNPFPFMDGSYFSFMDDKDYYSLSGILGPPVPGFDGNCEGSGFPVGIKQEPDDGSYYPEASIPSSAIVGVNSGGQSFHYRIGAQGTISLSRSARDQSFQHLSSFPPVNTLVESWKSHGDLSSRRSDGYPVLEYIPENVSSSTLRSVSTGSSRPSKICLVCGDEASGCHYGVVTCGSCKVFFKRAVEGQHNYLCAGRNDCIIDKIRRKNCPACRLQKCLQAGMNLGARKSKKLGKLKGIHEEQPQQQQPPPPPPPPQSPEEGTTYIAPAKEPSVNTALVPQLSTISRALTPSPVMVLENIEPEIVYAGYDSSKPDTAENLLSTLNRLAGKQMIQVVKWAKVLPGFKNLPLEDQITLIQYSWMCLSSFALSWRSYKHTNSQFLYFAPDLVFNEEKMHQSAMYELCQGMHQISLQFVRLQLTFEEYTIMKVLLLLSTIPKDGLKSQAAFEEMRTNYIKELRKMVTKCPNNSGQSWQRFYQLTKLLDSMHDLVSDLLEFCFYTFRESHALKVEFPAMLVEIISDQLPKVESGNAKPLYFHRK
UniProt P04150: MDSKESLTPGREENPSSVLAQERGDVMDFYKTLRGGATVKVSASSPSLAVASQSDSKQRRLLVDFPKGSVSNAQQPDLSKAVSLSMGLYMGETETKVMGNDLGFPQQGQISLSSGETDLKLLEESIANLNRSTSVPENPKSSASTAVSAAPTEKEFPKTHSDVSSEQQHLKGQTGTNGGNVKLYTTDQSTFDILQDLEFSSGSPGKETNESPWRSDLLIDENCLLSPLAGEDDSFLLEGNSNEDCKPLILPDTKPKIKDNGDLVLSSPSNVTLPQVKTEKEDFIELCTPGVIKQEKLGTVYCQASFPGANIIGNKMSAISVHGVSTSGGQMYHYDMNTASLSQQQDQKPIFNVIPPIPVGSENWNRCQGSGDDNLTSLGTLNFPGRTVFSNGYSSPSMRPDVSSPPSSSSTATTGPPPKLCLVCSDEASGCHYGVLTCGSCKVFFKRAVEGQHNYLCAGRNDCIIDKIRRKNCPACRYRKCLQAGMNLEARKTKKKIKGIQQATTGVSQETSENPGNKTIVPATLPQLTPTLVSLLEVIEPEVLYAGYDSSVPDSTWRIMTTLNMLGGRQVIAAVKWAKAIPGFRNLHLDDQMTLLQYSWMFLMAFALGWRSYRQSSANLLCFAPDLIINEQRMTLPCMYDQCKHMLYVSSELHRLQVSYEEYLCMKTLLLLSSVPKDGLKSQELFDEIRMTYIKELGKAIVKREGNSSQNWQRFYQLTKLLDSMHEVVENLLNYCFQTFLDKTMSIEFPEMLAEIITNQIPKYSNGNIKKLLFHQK
UniProt P06401: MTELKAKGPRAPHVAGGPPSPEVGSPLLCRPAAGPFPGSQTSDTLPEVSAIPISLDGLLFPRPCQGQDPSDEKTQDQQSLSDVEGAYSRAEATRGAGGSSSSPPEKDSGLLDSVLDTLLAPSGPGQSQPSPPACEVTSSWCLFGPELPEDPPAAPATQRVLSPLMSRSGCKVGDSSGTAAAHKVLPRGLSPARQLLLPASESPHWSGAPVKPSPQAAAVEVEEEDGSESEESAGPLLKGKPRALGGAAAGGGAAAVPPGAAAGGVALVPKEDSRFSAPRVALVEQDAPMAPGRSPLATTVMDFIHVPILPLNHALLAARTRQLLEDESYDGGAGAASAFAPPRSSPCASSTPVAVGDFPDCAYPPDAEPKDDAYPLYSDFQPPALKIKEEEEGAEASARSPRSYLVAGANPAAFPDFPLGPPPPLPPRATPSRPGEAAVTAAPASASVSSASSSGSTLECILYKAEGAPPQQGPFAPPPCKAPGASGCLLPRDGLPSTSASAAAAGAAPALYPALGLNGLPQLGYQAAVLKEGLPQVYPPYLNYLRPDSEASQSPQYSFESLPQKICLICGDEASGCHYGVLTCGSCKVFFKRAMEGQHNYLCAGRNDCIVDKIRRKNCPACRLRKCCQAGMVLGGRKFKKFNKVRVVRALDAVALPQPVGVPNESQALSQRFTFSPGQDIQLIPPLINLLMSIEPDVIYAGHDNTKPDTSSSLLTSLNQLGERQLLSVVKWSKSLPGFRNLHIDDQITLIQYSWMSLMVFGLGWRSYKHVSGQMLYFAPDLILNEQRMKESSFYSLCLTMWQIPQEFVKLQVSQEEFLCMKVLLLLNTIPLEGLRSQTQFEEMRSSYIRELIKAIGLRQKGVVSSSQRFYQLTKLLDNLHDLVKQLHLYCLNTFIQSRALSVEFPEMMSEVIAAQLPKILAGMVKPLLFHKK

Consider `Cc1c(N[C@H]2CCC[C@@]2(C)O)ccc(C#N)c1Cl`, for which the Ki (as a rule, the dissociation constant of the complex between target and ligand, obtained from inhibition or displacement) came out at 1840 nM in test [1], 462 nM in test [2] and 448 nM in test [3].

For the origin of these results see US8658693B2, “4-aminobenzonitrile selective androgen receptor modulators” (Eli Lilly and Company, priority 2011, dated 2014).
